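1) Cells in 96-well plates. 2) Compound, 48 h, 5 concentrations. 3) Linear interpolation between surrounding doses. 4) Unreached endpoint = highest concentration. GI50 is the concentration that inhibits growth by half. Definition used: TGI = concentration required for complete inhibition of growth.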
Columns and labels:
Assay in all cases: NCI-60 cell line screen, 48 h
[1] = system: OVCAR-8 ovarian
[2] = system: UO-31 renal
[3] = system: 786-0 renal
[4] = system: NCI-H226 lung
[5] = system: LOX IMVI melanoma
[6] = system: SK-MEL-2 melanoma
[7] = system: MDA-N
[8] = system: RXF 393 renal
[9] = system: MDA-MB-231 breast
[10] = system: SN12C renal
[11] = system: EKVX NSCLC
[12] = system: MCF7 breast
[13] = system: NCI-H460 lung
[14] = system: OVCAR-3 ovarian
[15] = system: HOP-92 NSCLC
[16] = system: DU-145 prostate
[17] = system: ACHN renal
[18] = system: IGROV1 ovarian
[19] = system: HCT-116 colon
[20] = system: HCC-2998 colon
[21] = system: SR leukemia
[22] = system: RPMI-8226 leukemia
[23] = system: K-562 leukemia
[24] = system: NCI-H23 lung
[25] = system: OVCAR-5 ovarian
[26] = system: HL-60(TB) leukemia
[27] = system: NCI/ADR-RES ovarian
[28] = system: KM12 colon
[29] = system: MDA-MB-435
[30] = system: HOP-62 NSCLC
[31] = system: T-47D breast
[32] = system: A549 NSCLC
[33] = system: SNB-19 CNS
[34] = system: TK-10 renal
[35] = system: SK-MEL-28 melanoma
[36] = system: CCRF-CEM leukemia
[37] = system: M14 melanoma
[38] = system: SF-268 CNS
[39] = system: UACC-257 melanoma
[40] = system: HT29 colon
[41] = system: SK-OV-3 ovarian
[42] = system: CAKI-1 renal
[43] = system: HS 578T breast
[44] = system: BT-549 breast
[45] = system: UACC-62 melanoma
[46] = system: PC-3 prostate
[47] = system: SF-295 CNS
[48] = system: U251 CNS
[49] = system: MALME-3M melanoma
[50] = system: SK-MEL-5 melanoma
[51] = system: A498 renal
[52] = system: SW-620 colon
[53] = system: NCI-H522 lung
[54] = system: COLO 205 colon
[55] = system: MOLT-4 leukemia
[56] = system: HCT-15 colon
[57] = system: OVCAR-4 ovarian
[58] = system: NCI-H322M lung
[59] = system: SNB-75 CNS
[60] = system: SF-539 CNS

SMILES: O=[N+]([O-])C(F)(CCNCC(F)([N+](=O)[O-])[N+](=O)[O-])[N+](=O)[O-]
- GI50 [1]: 2.44 µM
- TGI [1]: 18.8 µM
- GI50 [2]: 2.31 µM
- TGI [2]: 5.34 µM
- GI50 [3]: 1.98 µM
- TGI [3]: 5.82 µM
- GI50 [4]: 9.88 µM
- TGI [4]: 40.8 µM
- GI50 [5]: 1.87 µM
- TGI [5]: 9.4 µM
- GI50 [6]: 2.77 µM
- TGI [6]: 8.16 µM
- GI50 [7]: 0.576 µM
- TGI [7]: 2.32 µM
- GI50 [8]: 9.23 µM
- TGI [8]: 25.6 µM
- GI50 [9]: 2.91 µM
- TGI [9]: 10.4 µM
- GI50 [10]: 2.25 µM
- TGI [10]: 5.84 µM
- GI50 [11]: 2.08 µM
- TGI [11]: 5.24 µM
- GI50 [12]: 1.56 µM
- TGI [12]: 18.4 µM
- GI50 [13]: 2.64 µM
- TGI [13]: 10.5 µM
- GI50 [14]: 2 µM
- TGI [14]: 4.81 µM
- GI50 [15]: 1.66 µM
- TGI [15]: 3.9 µM
- GI50 [16]: 2.01 µM
- TGI [16]: 4.82 µM
- GI50 [17]: 1.99 µM
- TGI [17]: 10.2 µM
- GI50 [18]: 1 µM
- TGI [18]: 2.74 µM
- GI50 [19]: 1.35 µM
- TGI [19]: 8.91 µM
- GI50 [20]: 1.75 µM
- TGI [20]: 4.21 µM
- GI50 [21]: 0.226 µM
- TGI [21]: 0.841 µM
- GI50 [22]: 0.344 µM
- TGI [22]: 2.58 µM
- GI50 [23]: 0.401 µM
- TGI [23]: 2.97 µM
- GI50 [24]: 2.78 µM
- TGI [24]: 13.4 µM
- GI50 [25]: 4.24 µM
- TGI [25]: 16.9 µM
- GI50 [26]: 0.397 µM
- TGI [26]: 1.48 µM
- GI50 [27]: 3.16 µM
- TGI [27]: 17.9 µM
- GI50 [28]: 1.86 µM
- TGI [28]: 4.66 µM
- GI50 [29]: 0.625 µM
- TGI [29]: 3.22 µM
- GI50 [30]: 3.23 µM
- TGI [30]: 10.5 µM
- GI50 [31]: 2.27 µM
- TGI [31]: 7.96 µM
- GI50 [32]: 5.74 µM
- TGI [32]: 21.5 µM
- GI50 [33]: 3.08 µM
- TGI [33]: 15 µM
- GI50 [34]: 2.39 µM
- TGI [34]: 19.3 µM
- GI50 [35]: 4.74 µM
- TGI [35]: 34.3 µM
- GI50 [36]: 0.632 µM
- TGI [36]: 4.11 µM
- GI50 [37]: 1.48 µM
- TGI [37]: 4.12 µM
- GI50 [38]: 3.93 µM
- TGI [38]: 25.3 µM
- GI50 [39]: 2.83 µM
- TGI [39]: 8.75 µM
- GI50 [40]: 1.86 µM
- TGI [40]: 16.7 µM
- GI50 [41]: 7.39 µM
- TGI [41]: 22.4 µM
- GI50 [42]: 2.35 µM
- TGI [42]: 6.35 µM
- GI50 [43]: 8.08 µM
- TGI [43]: 28.1 µM
- GI50 [44]: 1.34 µM
- TGI [44]: 3.7 µM
- GI50 [45]: 1.58 µM
- TGI [45]: 3.71 µM
- GI50 [46]: 2.65 µM
- TGI [46]: 9.15 µM
- GI50 [47]: 8.67 µM
- TGI [47]: 23.5 µM
- GI50 [48]: 4.23 µM
- TGI [48]: 18.2 µM
- GI50 [49]: 1.56 µM
- TGI [49]: 3.48 µM
- GI50 [50]: 1.34 µM
- TGI [50]: 3.26 µM
- GI50 [51]: 8.3 µM
- TGI [51]: 24.5 µM
- GI50 [52]: 1.1 µM
- TGI [52]: 15.3 µM
- GI50 [53]: 0.529 µM
- TGI [53]: 1.97 µM
- GI50 [54]: 1.76 µM
- TGI [54]: 3.77 µM
- GI50 [55]: 1.6 µM
- TGI [55]: 8.45 µM
- GI50 [56]: 1.34 µM
- TGI [56]: 16.3 µM
- GI50 [57]: 3.86 µM
- TGI [57]: 12.9 µM
- GI50 [58]: 14.2 µM
- TGI [58]: 35.9 µM
- GI50 [59]: 10.1 µM
- TGI [59]: 27.5 µM

SMILES: CC1=CC23C(COC(=O)C24CO4)C(C(=O)O)=CC3C1C.NCc1ccccc1 (stereo not drawn)
- TGI [1]: 12.2 µM
- TGI [2]: > 100 µM
- TGI [3]: 13.2 µM
- TGI [4]: 11.7 µM
- TGI [5]: 3.98 µM
- TGI [6]: 0.62 µM
- TGI [7]: 13.7 µM
- TGI [8]: 2.04 µM
- TGI [9]: > 100 µM
- TGI [10]: 2.66 µM
- TGI [11]: > 100 µM
- TGI [12]: > 100 µM
- TGI [13]: 11 µM
- TGI [14]: > 100 µM
- TGI [15]: 2.75 µM
- TGI [16]: 17.8 µM
- TGI [17]: 55.3 µM
- TGI [18]: 14.8 µM
- TGI [19]: 21.7 µM
- TGI [20]: 11.8 µM
- TGI [21]: 13.4 µM
- TGI [22]: 0.679 µM
- TGI [23]: 19.7 µM
- TGI [24]: 33.7 µM
- TGI [25]: > 100 µM
- TGI [26]: 24.4 µM
- TGI [27]: 4.69 µM
- TGI [28]: 5.11 µM
- TGI [29]: 30.3 µM
- TGI [30]: 7.37 µM
- TGI [31]: 15.3 µM
- TGI [32]: 29.7 µM
- TGI [33]: > 100 µM
- TGI [60]: 7.31 µM
- TGI [34]: 57.5 µM
- TGI [35]: 0.393 µM
- TGI [36]: 8.06 µM
- TGI [37]: 0.989 µM
- TGI [38]: 3.17 µM
- TGI [39]: > 100 µM
- TGI [40]: 35.7 µM
- TGI [41]: 43.9 µM
- TGI [42]: 10.7 µM
- TGI [43]: 0.941 µM
- TGI [44]: > 100 µM
- TGI [45]: 2.53 µM
- TGI [46]: 17.6 µM
- TGI [47]: > 100 µM
- TGI [48]: 59.1 µM
- TGI [49]: 1.18 µM
- TGI [50]: 7.77 µM
- TGI [51]: 8.25 µM
- TGI [52]: 60.4 µM
- TGI [53]: 0.541 µM
- TGI [54]: 75.5 µM
- TGI [55]: 9.4 µM
- TGI [56]: 23.9 µM
- TGI [57]: 46 µM
- TGI [58]: 6.5 µM
- TGI [59]: 19.2 µM
